# Molecular target: Nociceptin receptor (Cavia porcellus, UniProt P47748)
# Amino acid sequences for entries named in this document (tags omitted). A change or cut given only in a name is not applied to a line headed by its entry.
# UniProt P47748: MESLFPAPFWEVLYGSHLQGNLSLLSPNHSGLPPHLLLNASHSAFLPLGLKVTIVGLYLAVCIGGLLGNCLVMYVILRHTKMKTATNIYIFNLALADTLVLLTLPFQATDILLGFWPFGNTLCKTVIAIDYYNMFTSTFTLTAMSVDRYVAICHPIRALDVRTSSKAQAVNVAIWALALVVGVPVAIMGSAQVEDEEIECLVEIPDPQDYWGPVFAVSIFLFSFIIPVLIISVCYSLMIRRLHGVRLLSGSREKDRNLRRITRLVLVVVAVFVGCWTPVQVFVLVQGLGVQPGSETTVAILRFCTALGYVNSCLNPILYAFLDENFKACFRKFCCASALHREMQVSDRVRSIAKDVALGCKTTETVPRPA
# Assay: Displacement of radiolabeled NalBzOH from kappa3 opioid receptor in Hartley guinea pig brain
structure (smiles),measurement,value
CN(C(=O)Cc1ccccc1)[C@H]1C[C@@]2(CCCO2)CC[C@@H]1N1CCCC1,Ki,1100 nM

# Reference: BindingDB's records for 16777416 (2006)
